AlphaSeq binding of Ab-14 heavy chain variants to a spike HR2 peptide

The target is the same throughout: PDVDLGDISGINAS, from the HR2 region of SARS-CoV-2 spike.

The variants keep the light chain, the linker and the frameworks of Ab-14 (scFv order VH, a 15-residue (Gly4Ser)3 linker, VL).
VH: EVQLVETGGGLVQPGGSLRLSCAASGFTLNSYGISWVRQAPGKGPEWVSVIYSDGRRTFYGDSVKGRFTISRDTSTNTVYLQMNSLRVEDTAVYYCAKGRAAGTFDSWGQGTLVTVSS
VL: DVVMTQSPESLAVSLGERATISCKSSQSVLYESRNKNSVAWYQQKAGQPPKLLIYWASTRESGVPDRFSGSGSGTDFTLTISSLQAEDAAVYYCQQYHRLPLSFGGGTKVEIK

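The starting antibody came from a phage panning campaign against this peptide. The variants were designed computationally from a first round of random CDR variants and then made and measured. Their group label is 14H_GP_HC (GP: Gaussian process model; HC: hill climbing; a sequence that several methods proposed may carry one label only). Affinity was read by AlphaSeq, a pooled yeast mating assay with surface-displayed partners. After mating in shaken culture at 30 °C for 16 h, diploids were selected and their barcode pairs sequenced. Each replicate has its own calibration line, from reference interactions of the BCL2 family. Each pool was mated in six replicate cultures.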

Each variant is given by its three heavy chain CDRs, as the data file delimits them; those of the parent are GFTLNSYGIS, VIYSDGRRTFYGDSVK, GRAAGTFDS.
Numbers give log10(Kd / nM), so 0 is 1 nM and 3 is 1 µM. Smaller is tighter.
Replicates are averaged; those with no signal do not enter the mean.
An entry "nd" has no value in the source: the pair was not observed among the diploids in that replicate. This suggests poor binding but is not conclusive.
Values of this round are not directly comparable with the first-round values of the same sequences.
The authors' rule: three or more of the six replicates give a measured affinity, fewer mean a poor binder.
The parent sequence was in this pool as ten entries: three were never detected, three once, and four in most replicates, with averages from 0.34 to 2.37.
Empty control strains, which show no peptide, gave a signal in 1% of pairings with all heavy chain designs; the median was 2.08 and 95% of these signals were weaker than 0.84. No background was subtracted. Also given: how often the same scFv was detected with the empty control strains.

Variant GFHLNDYGIS | VIYSDGRRTFYADSVK | GRLAGTFDS showed 0.32, 0.19, 0.23, 0.18, 0.48, 0.16 (mean 0.26; controls 0 of 18).
Variant GFTLNEYGIS | VIYSDGRRTFYGDSVK | GRAALTFWL showed nd, nd, nd, nd, nd, nd (controls 0 of 18).
Variant GFTLNEYGIS | VIYSDGRRTFYSDSVK | GHAAGTFDN showed 0.04, -0.13, 0.15, 0.22, -0.14, 0.61 (mean 0.12; controls 0 of 18).
Variant GFQLNDYGIS | VIYSDGRRTWYGDSVK | GRAAGTFDS showed 2.01, 1.27, 0.89, 1.09, 1.17, 1.18 (mean 1.27; controls 1 of 18).
Variant GFRLNSYGIS | VIYSDGRRTFYDDSVK | GQEAGTFDS showed 0.68, 1.15, 0.69, 0.69, 0.73, 0.83 (mean 0.80; controls 0 of 18).
Variant GFTLDSYGIS | VIYSDGRRTFYGDSVK | GRQAGTFDR showed nd, nd, nd, nd, nd, nd (controls 0 of 18).
Variant GFDLNSYGIS | VIYSDGRRTFYGDAVK | GRAAGTFDI showed 0.88, 0.61, 0.67, 0.84, -0.03, 0.50 (mean 0.58; controls 0 of 18).
Variant GFKLNSYGIS | VIYSDGRRTFYHDSVK | GQLAGTFDS showed 0.60, 0.73, 1.67, 0.84, 1.08, 1.03 (mean 0.99; controls 1 of 18).
Variant GFNLNDYGIS | VIYSDGRRTFYGDSVK | GTAAGTFDS showed 1.12, 0.75, 0.78, 0.80, 0.56, 0.29 (mean 0.72; controls 0 of 18).
Variant GFTLNEYGIS | VIYSDGRRTFYGDSVK | GRAAGTFMD showed nd, 1.26, nd, nd, nd, nd (controls 0 of 18).
Variant GFTLNEYGIS | VIYSDGRRTMYGDSVK | GRVAGTFDS showed nd, nd, nd, nd, nd, 1.90 (controls 0 of 18).
Variant GFTLNEYGIS | VIYSDGRRTFYSDSVK | GRAAVTFDT showed nd, nd, nd, nd, nd, nd (controls 0 of 18).
Variant GFSLNEYGIS | VIYSDGRRTFYCDSVK | GSAAGTFDR showed nd, nd, nd, nd, nd, nd (controls 0 of 18).
Variant GFTLNDYGIS | VIYSDGKRTFYIDSVK | GRAAGTFWS showed nd, nd, nd, nd, nd, nd (controls 0 of 18).
Variant GFWLNDYGIS | VIYSDGRRTFYDDSVK | GRAAGTFDS showed 0.55, 1.30, 0.97, 2.02, 1.82, 1.45 (mean 1.35; controls 0 of 18).
Variant KFQLNEYGIS | VIYSDGRRTFYGDSVK | GRCAGTFDS showed nd, nd, nd, nd, nd, nd (controls 0 of 18).
Variant GFTLNEYGIS | VIYSDGRRTFYIDSVK | GRAAGTFDK showed 0.49, 1.03, 0.65, 1.05, 0.70, 1.17 (mean 0.85; controls 0 of 18).
Variant GFSLNTYGIS | VIYSDGRRTFYIDSVK | GRAAGTFDS showed 1.27, 0.42, nd, nd, 0.29, 0.87 (mean 0.71; controls 0 of 18).
Variant GFILNSYGIS | VIYSDGRRTFYDDSVK | GQVAGTFDS showed 1.47, 0.77, 1.58, 0.00, 1.01, 0.27 (mean 0.85; controls 0 of 18).
Variant GFSLNEYGIS | VIYSDGRRTFYGDSVK | GRAAVTFDG showed nd, nd, nd, nd, nd, nd (controls 0 of 18).
Variant GFTLNEYGIS | VIYSDGRRTFYTDSVK | GRCAGTFDE showed nd, nd, 1.75, 1.73, nd, 3.89 (mean 2.46; controls 0 of 18).
Variant GFTLNEYGIS | VIYSDGRRTFYGDSVK | GRAAETFCV showed 1.14, nd, 2.35, nd, nd, 1.05 (mean 1.51; controls 0 of 18).
Variant GFDLNEYGIS | VIYSDGRRTFYGDAVK | GEAAGTFDS showed 0.60, 0.82, 0.66, 0.58, 0.61, 0.46 (mean 0.62; controls 0 of 18).
Variant GFSLNSYGIS | VIYSDGRRTFYSDSVK | GQDAGTFDS showed 0.86, 1.35, 1.20, 1.94, 1.87, 0.71 (mean 1.32; controls 0 of 18).
Variant GFTLNMYGIS | VIYSDGRRTFYSDSVK | GTAAGTFDS showed nd, nd, nd, nd, nd, nd (controls 0 of 18).
Variant GFTLNEYGIS | VIYSDGRRTFYHDSVK | GRAAGAFDS showed nd, nd, nd, nd, nd, nd (controls 0 of 18).
Variant GFDLNSYGIS | VIYSDGRRTFYGDSVK | GRAAGQFMS showed nd, nd, nd, nd, nd, nd (controls 0 of 18).
Variant GFILNDYGIS | VIYSDGRRTFYGDAVK | GRVAGTFDI showed 1.30, 2.18, 0.73, 0.38, 0.55, 0.78 (mean 0.99; controls 0 of 18).
Variant GFWLNEYGIS | VIYSDGRRTFYDDSVK | GRFAGTFDS showed 0.96, 1.10, 1.17, 1.00, 1.48, 1.27 (mean 1.16; controls 0 of 18).
Variant GFDLNSYGIS | VIYSDGRRTFYGDSVK | GRNAGTFES showed nd, nd, nd, nd, nd, nd (controls 0 of 18).
Variant GFQLNDYGIS | VIYSDGRRTFYGDSVK | GRMAGTFDS showed 0.44, 2.40, -0.11, nd, 0.20, 0.01 (mean 0.59; controls 0 of 18).
Variant GFALNSYGIS | VIYSDGRRTFYDDSVK | GQIAGTFDS showed nd, nd, -0.44, 0.90, 0.58, nd (mean 0.35; controls 0 of 18).
Variant GFDLNSYGIS | VIYSDGRRTFYEDSVK | GRAAVTFDS showed nd, nd, nd, nd, nd, nd (controls 0 of 18).
Variant GFTLNSYGIS | VIYSDGRRTFYDDSVK | GLIAGTFDS showed nd, 2.27, nd, nd, 0.66, 1.45 (mean 1.46; controls 0 of 18).
Variant GFTLNSYGIS | VIYSDGRRTFYDDSVK | GLLAGTFDT showed 0.93, 0.51, 0.51, 0.26, 0.37, 0.97 (mean 0.59; controls 0 of 18).
Variant GFTLNEYGIS | VIYSDGRRTFYGDSVK | GRFAGTFDI showed 0.72, -0.07, 0.09, -0.08, 1.26, 1.60 (mean 0.59; controls 0 of 18).
Variant GFWLNEYGIS | VIYSDGRRTFYTDSVK | GRAAGTFDS showed 0.68, 1.08, 1.21, 0.81, 0.77, 0.89 (mean 0.91; controls 1 of 18).

Again, the first 4 entries without any signal:

Variant GFTLNEYGIS | VIYSDGRRTFYGDSVK | GRAALTFWL showed nd, nd, nd, nd, nd, nd (controls 0 of 18).
Variant GFTLDSYGIS | VIYSDGRRTFYGDSVK | GRQAGTFDR showed nd, nd, nd, nd, nd, nd (controls 0 of 18).
Variant GFTLNEYGIS | VIYSDGRRTFYSDSVK | GRAAVTFDT showed nd, nd, nd, nd, nd, nd (controls 0 of 18).
Variant GFSLNEYGIS | VIYSDGRRTFYCDSVK | GSAAGTFDR showed nd, nd, nd, nd, nd, nd (controls 0 of 18).

From the AlphaSeq antibody data of Li et al. 2023 (doi:10.1038/s41467-023-39022-2), copy in the FLAb collection.